Laboratory results: ChEMBL document CHEMBL4041482, “Synthesis, evaluation, and CoMFA study of fluoroquinophenoxazine derivatives as bacterial topoisomerase IA inhibitors” (Eur J Med Chem, 2017)

Amino acid sequences for entries named in this document (tags omitted). A change or cut given only in a name is not applied to a line headed by its entry.
UniProt P11388: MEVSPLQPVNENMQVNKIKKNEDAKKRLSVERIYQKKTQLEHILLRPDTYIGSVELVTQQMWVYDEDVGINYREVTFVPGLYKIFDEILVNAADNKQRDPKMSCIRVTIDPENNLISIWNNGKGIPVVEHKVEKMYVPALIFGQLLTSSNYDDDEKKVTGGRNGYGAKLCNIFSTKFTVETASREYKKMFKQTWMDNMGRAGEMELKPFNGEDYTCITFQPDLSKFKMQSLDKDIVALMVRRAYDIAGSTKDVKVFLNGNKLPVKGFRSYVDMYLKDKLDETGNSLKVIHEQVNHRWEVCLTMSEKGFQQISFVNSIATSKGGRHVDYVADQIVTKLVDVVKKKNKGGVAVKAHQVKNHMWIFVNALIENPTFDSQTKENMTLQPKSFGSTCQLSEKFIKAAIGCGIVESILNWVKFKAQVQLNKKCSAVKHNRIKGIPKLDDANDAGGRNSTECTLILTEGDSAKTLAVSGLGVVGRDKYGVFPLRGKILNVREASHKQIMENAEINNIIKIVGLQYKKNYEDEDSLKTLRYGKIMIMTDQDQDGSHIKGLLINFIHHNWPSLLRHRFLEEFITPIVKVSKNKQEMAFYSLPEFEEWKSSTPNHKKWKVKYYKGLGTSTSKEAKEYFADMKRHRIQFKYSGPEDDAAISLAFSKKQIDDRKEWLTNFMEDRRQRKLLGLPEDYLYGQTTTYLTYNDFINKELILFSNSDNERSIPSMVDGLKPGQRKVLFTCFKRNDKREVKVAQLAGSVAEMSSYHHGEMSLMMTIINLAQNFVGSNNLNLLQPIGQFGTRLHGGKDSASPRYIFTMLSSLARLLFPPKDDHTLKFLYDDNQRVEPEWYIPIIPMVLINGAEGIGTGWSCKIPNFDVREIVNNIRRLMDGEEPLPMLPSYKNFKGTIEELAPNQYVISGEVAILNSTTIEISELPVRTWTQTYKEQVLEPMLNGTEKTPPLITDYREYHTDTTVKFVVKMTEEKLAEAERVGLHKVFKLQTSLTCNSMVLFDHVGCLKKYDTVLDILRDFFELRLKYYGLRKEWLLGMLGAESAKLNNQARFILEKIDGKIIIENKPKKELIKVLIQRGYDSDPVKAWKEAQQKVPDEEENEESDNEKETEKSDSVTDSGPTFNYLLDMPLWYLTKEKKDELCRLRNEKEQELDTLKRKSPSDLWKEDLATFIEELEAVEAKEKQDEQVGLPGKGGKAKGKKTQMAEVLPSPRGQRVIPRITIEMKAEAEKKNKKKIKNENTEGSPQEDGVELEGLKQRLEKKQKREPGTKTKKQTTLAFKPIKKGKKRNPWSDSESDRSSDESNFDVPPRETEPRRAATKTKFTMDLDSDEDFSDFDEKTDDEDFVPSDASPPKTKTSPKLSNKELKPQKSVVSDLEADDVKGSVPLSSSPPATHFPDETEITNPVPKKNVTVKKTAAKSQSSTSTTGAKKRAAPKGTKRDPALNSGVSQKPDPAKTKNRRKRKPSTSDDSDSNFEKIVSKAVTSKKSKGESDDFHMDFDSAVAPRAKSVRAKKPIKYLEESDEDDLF

Tests used:
[1] = target: DNA topoisomerase 2-alpha (Homo sapiens, UniProt P11388); test: Inhibition of human topoisomerase-2alpha assessed as reduction in enzyme-mediated decatenation using kinetoplast DNA as substrate after 15 mins by ethidium bromide staining based agarose gel electrophoresis method
How it was run: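 Compounds added to 185 ng kinetoplast DNA in manufacturer's buffer, then 2 U human topoisomerase IIα. 15 minutes at 37 °C; stopped with sarkosyl-containing buffer; run on 1% agarose gels containing 0.5 μg/mL ethidium bromide, photographed under UV.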

[2] = Inhibition of recombinant Escherichia coli DNA gyrase expressed in Escherichia coli assessed as reduction in enzyme-mediated supercoiling of relaxed circular DNA preincubated with enzyme followed by substrate addition measured after 30 mins by agarose gel electrophoresis method
[3] = Inhibition of human topoisomerase type 1B assessed as reduction in enzyme-mediated relaxation of supercoiled pBAD/Thio DNA after 30 mins by agarose gel electrophoresis method
How it was run: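 Human topoisomerase I, 0.5 U, in manufacturer's reaction buffer; enzyme mixed with compound before 200 ng supercoiled pBAD/Thio plasmid added, 20 μL final. 37 °C for 30 minutes; stopped with SDS/bromophenol blue/glycerol buffer; agarose gel electrophoresis read-out.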

[4] = Inhibition of recombinant Escherichia coli topoisomerase 1a expressed in Escherichia coli assessed as reduction in enzyme-mediated relaxation of supercoiled pBAD/Thio DNA preincubated with enzyme followed by substrate addition measured after 30 mins by ethidium bromide staining based agarose gel electrophoresis method

## Nc1ccc2c(c1)Oc1c(N3CC[C@H](N)C3)c(F)cc3c(=O)c(C(=O)O)cn-2c13
[1]
  IC50: 0.97 to 1.95 µM
[2]
  IC50: 3.9 µM
[3]
  IC50: 3.9 µM

## Nc1ccc2c(c1)Oc1c(NCCN3CCOCC3)c(F)cc3c(=O)c(C(=O)O)cn-2c13
[1]
  IC50: 3.9 to 7.8 µM
[4]
  IC50: 0.97 µM
  pIC50: 6.01
